Measured values from patent publication US10869933B2, “Oligomer-phenothiazine conjugates” (Nektar Therapeutics, priority 2009, dated 2020).

How the values were obtained:
[1] = Brain:plasma ratio; details: rats, 5 mg/kg intravenously, one hour after injection; brain (ng/g) / plasma (ng/mL)
[2] = aqueous pKa, 25° C., average of three measurements
[3] = Partition Log P, average of three measurements

Substance: mPEG9-N-promethazine
- Brain/plasma ratio Mean [1]: 0.080
- pKa [2]: 8.296
- LogP [3]: 2.540
